Consider 13 molecules from ChEMBL document CHEMBL3612027, “Substrate-guided optimization of the syringolins yields potent proteasome inhibitors with activity against leukemia cell lines” (Bioorg Med Chem, 2015).

Chains of the proteins cited; added tags and fusions are not shown. Lines headed by an entry give the natural chain unless they say otherwise; changes in a name come on top.
UniProt P28074: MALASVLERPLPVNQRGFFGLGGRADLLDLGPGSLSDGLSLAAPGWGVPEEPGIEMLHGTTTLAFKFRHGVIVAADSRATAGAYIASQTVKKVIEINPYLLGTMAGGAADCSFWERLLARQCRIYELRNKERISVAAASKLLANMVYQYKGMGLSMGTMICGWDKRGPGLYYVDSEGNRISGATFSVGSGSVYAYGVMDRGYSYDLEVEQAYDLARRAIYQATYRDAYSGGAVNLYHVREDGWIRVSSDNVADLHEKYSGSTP

One assay relates to MDA-MB-468. The experiment in a line: Cytotoxicity against human MDA-MB-468 cells assessed as cell growth at 10 uM after 48 hrs relative to control. Type of assay: functional. As to conditions: MDA-MB-468, 48 h, read-out: Activity. In a few lines: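 Run at the National Cancer Institute as a single-dose screen across its 60-cell-line cancer panel. Compound was tested at 10 micromolar, and growth was expressed as a percentage of negative-control cultures.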
Take `COC(=O)[C@@H](NC(=O)N[C@H](C(=O)N[C@H]1CCCCNC(=O)/C=C/[C@H](Cc2c[nH]c3ccccc23)NC1=O)C(C)C)C(C)C`: the growth at 10 µM was -5.14%.

For a further assay, the target named is Proteasome Macropain subunit MB1 (Homo sapiens, UniProt P28074).
Settings: not given
Molecule `COC(=O)[C@@H](NC(=O)N[C@H](C(=O)N[C@H]1CCCCNC(=O)/C=C/[C@H](C(C)C)NC1=O)C(C)C)C(C)C` gave a Kin of 0.00055 s⁻¹.

`COC(=O)[C@@H](NC(=O)N[C@H](C(=O)N[C@H]1CCCCNC(=O)/C=C/[C@H](Cc2cccc(C(F)(F)F)c2)NC1=O)C(C)C)C(C)C` gave a Kin of 0.000472 s⁻¹.

In the case of `COC(=O)[C@@H](NC(=O)N[C@H](C(=O)N[C@H]1CCCCNC(=O)/C=C/[C@H](Cc2ccc(Cl)cc2)NC1=O)C(C)C)C(C)C`, the Kin amounted to 0.000499 s⁻¹.

As for `COC(=O)[C@@H](NC(=O)N[C@@H](Cc1ccccc1)C(=O)N[C@H]1CCCCNC(=O)/C=C/[C@H](Cc2c[nH]c3ccccc23)NC1=O)C(C)C`, the Kin stood at 0.000551 s⁻¹.

For the molecule `COC(=O)[C@@H](NC(=O)N[C@H](C(=O)N[C@H]1CCCCNC(=O)/C=C/[C@H](Cc2cccc(Cl)c2)NC1=O)C(C)C)C(C)C`, the Kin was 0.000489 s⁻¹.

`COC(=O)[C@@H](NC(=O)N[C@H](C(=O)N[C@H]1CCCCNC(=O)/C=C/[C@H](Cc2cccc(C)c2)NC1=O)C(C)C)C(C)C` yielded a Kin of 0.000495 s⁻¹.

`COC(=O)[C@@H](NC(=O)N[C@H](C(=O)N[C@H]1CCCCNC(=O)/C=C/[C@H](Cc2ccc(C)cc2)NC1=O)C(C)C)C(C)C`: the Kin stood at 0.0005 s⁻¹.

In turn, `COC(=O)[C@@H](NC(=O)N[C@H](C(=O)N[C@H]1CCCCNC(=O)/C=C/[C@H](Cc2ccccc2)NC1=O)C(C)C)C(C)C` came in with a Kin of 0.000472 s⁻¹.

In the case of `COC(=O)[C@@H](NC(=O)N[C@H](C(=O)N[C@H]1CCCCNC(=O)/C=C/[C@H](CC(C)C)NC1=O)C(C)C)C(C)C`, the Kin amounted to 0.000613 s⁻¹.

Molecule `COC(=O)[C@@H](NC(=O)N[C@H](C(=O)N[C@H]1CCCCNC(=O)/C=C/[C@H](Cc2ccccc2Cl)NC1=O)C(C)C)C(C)C` had a Kin of 0.000516 s⁻¹.

Consider `COC(=O)[C@@H](NC(=O)N[C@H](C(=O)N[C@H]1CCCCNC(=O)/C=C/[C@H](Cc2ccccc2F)NC1=O)C(C)C)C(C)C`, for which the Kin came out at 0.000479 s⁻¹.

Take `COC(=O)[C@@H](NC(=O)N[C@H](C(=O)N[C@H]1CCCCNC(=O)/C=C/[C@H](Cc2c[nH]c3ccccc23)NC1=O)C(C)C)C(C)C`: the Kin was found to be 0.000514 s⁻¹.

`COC(=O)[C@@H](NC(=O)N[C@@H](Cc1ccccc1)C(=O)N[C@H]1CCCCNC(=O)/C=C/[C@H](C(C)C)NC1=O)C(C)C` registered a Kin of 0.000598 s⁻¹.
